In patent publication US20230181528A1, “COMPOSITIONS AND METHODS FOR TREATING NEOPLASIA” (The Broad Institute, Inc., priority 2020, published 2023):

Assays:
[1] = system: PANC0403 pancreatic cancer cell line (VPS4B^loss); assay: Interferon dose-response curves with VPS4A suppression (CellTiter-Glo); type: cell-based, human; details: PANC0403 shVPS4A-2, co-treatment with 1 μM doxycycline, interferon titration for last 3 days
Description: (§1) To determine whether interferon treatment cooperate with VPS4A suppression, pancreatic cancer cell lines (KP4, PANC0403 and SNU213) stably expressing the doxycycline-inducible RNAi system against VPS4A (shVPS4A-2) were plated in white-walled 96-well plates at 100˜400 cells per well in 100 μL of 10% FBS-supplemented RPMI-1640 with L-glutamine with or without 1 μM doxycycline. Plates were incubated at 37° C., 5% CO2 for 3 days. A 9-point log 10 titration of a stock solution (5 μg/mL) of purified recombinant human interferon-β1 or interferon-γ (PeproTech 300-02BC; 300-02) dissolved in 1% BSA containing PBS with 0.3% Tween-20 was then added to the cells using a D300e Digital Dispenser (Tecan) using T8+ and D4+ dispense cassette heads (HP). At the same time, the doxycycline was refreshed. Cells were then incubated for an additional 3 days at 37° C., 5% CO2. Afterwards, 100 μL of premixed CellTiter-Glo (Promega) reagent was added to the wells to lyse cells by shaking the plates at 500 RPM for 10 minutes at room temperature. Luminescence for each well was then measured using an Envision plate reader (Perkin Elmer) to measure cell viability using the ATP-based readout. Luminescence signal for each well was normalized to the average signal from 6 wells treated without interferon for each cell line. […]

[2] = system: SNU213 pancreatic cancer cell line (VPS4B^loss); assay: as above; type: cell-based, human; details: SNU213 shVPS4A-2, co-treatment with 1 μM doxycycline, interferon titration for last 3 days
Description: as §1

B1: Interferon-β: purified recombinant human interferon-β1 (PeproTech) (protein, UniProt P01574 22-187, looked up)
Interferon beta: MSYNLLGFLQRSSNFQCQKLLWQLNGRLEYCLKDRMNFDIPEEIKQLQQFQKEDAALTIYEMLQNIFAIFRQDSSSTGWNETIVENLLANVYHQINHLKTVLEEKLEKEDFTRGKLMSSLHLKRYYGRILHYLKAKEYSHCAWTIVRVEILRNFYFINRLTGYLRN
[1]
  sensitization to VPS4A suppression (6-day cell viability): did not alter sensitivity
[2]
  sensitization to VPS4A suppression (6-day cell viability): strongly sensitized
